Data as given in ChEMBL document CHEMBL4011581, “Interference with bile salt export pump function is a susceptibility factor for human liver injury in drug development” (Toxicol Sci, 2010).

Target: Bile salt export pump (Homo sapiens, UniProt O95342)
Format: ADME

- IC50: > 135 µM
SMILES: CCN(CC)CC(=O)Nc1c(C)cccc1C [LIDOCAINE]
